Target: Bromodomain-containing protein 4 (Homo sapiens, UniProt O60885)
Experiment: Selectivity index, ratio of IC50 for human recombinant BRD4 BD1 (42 to 167 residues) extracted from Escherichia coli BL21 (DE3) to IC50 for human recombinant BRD4 BD2 (349 to 460 residues) extracted from Escherichia coli BL21 (DE3)

Row | Ratio IC50 | SMILES
1 | > 10 | COc1cccc(/C=C/c2nc3cc(OC)cc(OC)c3c(=O)[nH]2)c1
2 | 32 | COc1ccc(/C=C/c2nc3cc(OC)cc(OC)c3c(=O)[nH]2)cc1
